# Experimental data published in PubChem BioAssay AID732 (Emory University Molecular Libraries Screening Center, 2007).
# “And” between values parts separate entries of the source, which are not always exact repeats. Identical values can stand only once. The source made the active and inactive calls. How the calls were made is not given here.
# Test system: in vivo angiogenesis, blood vessel count
# Assay: angiogenesis inhibition in living animals, in vivo study, HTS (AID 732);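 further: zebrafish embryos dosed at one day post fertilization; 0% = reference inhibitor and 100% = plate mean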
# Conditions: active compounds read low;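 tested at 30 µM in the well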
row,SMILES,vessel count % control
1,CN(C(=O)Cc1ccc(Cl)c(Cl)c1)[C@H]1CCCC[C@@H]1N1CCCC1,inactive: 124% and inactive: 116%
2,CN(C(=O)Cc1ccccc1)[C@@H]1CC[C@]2(CCCO2)C[C@H]1N1CCCC1,inactive: 102%
3,CN(CCCl)Cc1cc(Cl)c(NC2=NCCN2)c(Cl)c1,inactive: 85.5%
4,CN(C(=O)Cc1ccc(Cl)c(Cl)c1)[C@@H]1CC[C@]2(CCCO2)C[C@H]1N1CCCC1,inactive: 107%
5,CN(C(=O)Cc1ccc(Cl)c(Cl)c1)[C@@H]1CCCC[C@H]1N1CCCC1,inactive: 102%
6,CN(C(=O)Cc1ccc(Cl)c(Cl)c1)[C@@H]1CCCC[C@@H]1N1CCCC1,inactive: 114%
